Results published in US9399017B2, “Peptide pharmaceutical for oral delivery” (Enteris BioPharma, Inc., priority 2007, dated 2016).

Experiment: PTH(1-31)NH2 content, stability and recovery in tablets following manufacture
Type: physicochemical
Conditions: for PTH(1-31)NH2 Impurity 1 / PTH(1-31)NH2 Impurity 2: oxidation impurity; for PTH(1-31)NH2 Purity: tablets following manufacture
Protocol: PTH(1-31)NH2 (2 mg) and lauroyl-L-carnitine (50 mg) were dispersed in tablets prepared as described in Table 2 with and without 1 mg sodium pyruvate. The tablets were sealed with a non-ionic subcoat and an L30D-55 enteric coat. The PTH(1-31)NH2 content of the tablets was analyzed following their manufacture.

SMILES: CC[C@H](C)[C@H](NC(=O)[C@H](CCC(=O)O)NC(=O)[C@H](CO)NC(=O)[C@@H](NC(=O)[C@@H](N)CO)C(C)C)C(=O)N[C@@H](CCC(N)=O)C(=O)N[C@@H](CC(C)C)C(=O)N[C@@H](CCSC)C(=O)N[C@@H](Cc1c[nH]cn1)C(=O)N[C@@H](CC(N)=O)C(=O)N[C@@H](CC(C)C)C(=O)NCC(=O)N[C@@H](CCCCN)C(=O)N[C@@H](Cc1c[nH]cn1)C(=O)N[C@@H](CC(C)C)C(=O)N[C@@H](CC(N)=O)C(=O)N[C@@H](CO)C(=O)N[C@@H](CCSC)C(=O)N[C@@H](CCC(=O)O)C(=O)N[C@@H](CCCNC(=N)N)C(=O)N[C@H](C(=O)N[C@@H](CCC(=O)O)C(=O)N[C@@H](Cc1c[nH]c2ccccc12)C(=O)N[C@@H](CC(C)C)C(=O)N[C@@H](CCCNC(=N)N)C(=O)N[C@@H](CCCCN)C(=O)N[C@@H](CCCCN)C(=O)N[C@@H](CC(C)C)C(=O)N[C@@H](CCC(N)=O)C(=O)N[C@@H](CC(=O)O)C(=O)N[C@H](C(N)=O)C(C)C)C(C)C [PTH(1-31)NH2]
- PTH(1-31)NH2 Impurity 1 (Sodium Pyruvate 0 mg): 3.7%
- PTH(1-31)NH2 Impurity 2 (Sodium Pyruvate 0 mg): 5.4%
- PTH(1-31)NH2 Purity (Sodium Pyruvate 0 mg): 88.1%
- PTH(1-31)NH2 Impurity 1 (Sodium Pyruvate 1 mg): 0.0%
- PTH(1-31)NH2 Impurity 2 (Sodium Pyruvate 1 mg): 0.0%
- PTH(1-31)NH2 Purity (Sodium Pyruvate 1 mg): 98.1%
